Source: US7879844B2, “Heterocyclic janus kinase 3 inhibitors” (Astellas Pharma Inc., priority 2005, dated 2011)

Sequences of proteins named here, by UniProt entry; tags and fusion partners are left off. Residues count along the entry.
UniProt P52333, 796-1124: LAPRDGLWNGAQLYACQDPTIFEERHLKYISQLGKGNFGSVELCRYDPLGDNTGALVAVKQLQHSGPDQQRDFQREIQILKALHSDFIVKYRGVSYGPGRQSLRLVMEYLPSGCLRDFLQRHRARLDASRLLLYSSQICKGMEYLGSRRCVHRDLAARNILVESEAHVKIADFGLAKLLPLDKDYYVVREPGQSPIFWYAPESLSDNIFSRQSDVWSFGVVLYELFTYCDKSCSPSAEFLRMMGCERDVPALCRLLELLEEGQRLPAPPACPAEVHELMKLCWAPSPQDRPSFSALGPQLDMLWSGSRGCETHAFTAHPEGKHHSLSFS

Target: T1, human JAK3 kinase domain (Homo sapiens, UniProt P52333)
T1 construct: attached to the N-terminal of the 796-1124 (C-terminal) fragment of the human JAK3 protein; His-tag (N); purchased Carna Biosciences, Inc. (Kobe, Japan); host or cells: baculovirus expression system
Assay: JAK3 inhibition test
Format: biochemical
Conditions: purified human JAK3 kinase domain; Biotin-Lyn-Substrate-2, 20 μM ATP in substrate solution; absorbance at 450 nm; read-out: IC50 (JAK3 inhibitory activity)
Experimental: The JAK3 inhibition test was performed as described below according to the method of Okimoto et al.
Purified human JAK3 kinase domain was purchased from Carna Biosciences, Inc. (Kobe, Japan). This is obtained as described below. His-tag (41 kDa) was attached to the N-terminal of the 796-1124 (C-terminal) fragment of the human JAK3 protein (accession number #NM_000215), expressed using baculovirus expression system, and then purified using Ni-NTA affinity column chromatography.
As substrates, Biotin-Lyn-Substrate-2 (Biotin-XEQED EPEGF YFEWL EPE, X=∈-Acp (PEPTIDE INSTITUTE, INC., Osaka, Japan) and ATP were used. As an assay buffer, 15 mM Tris-HCl pH 7.5 containing 0.01% Tween 20 and 2 mM DTT was used. Normally, 20 μL of a substrate solution (an assay buffer containing 627 nM Biotin-Lyn-Substrate-2, 20 μM ATP, and 25 mM MgCl2), an assay buffer containing 10 μL of a substance to be tested, and 20 μL of an enzyme solution were added to a microplate, and stirred sufficiently.
After incubation at ambient temperature for one hour, the plate was washed with a cleaning buffer (50 mM Tris-HCl pH 7.5, 150 mM NaCl, 0.02% Tween 20), and a blocking buffer (a cleaning buffer containing 0.1% bovine serum albumin) was added to the plate. […] Enzyme activity was measured as absorbance at 450 nm. The efficacy of the test compound as a JAK3 inhibitor was expressed as an IC50 value.

## NC(=O)c1cnc2[nH]ccc2c1N[C@@H]1[C@@H]2CC3C[C@H]1C[C@@](O)(C3)C2 [Example 121]
  IC50: 1.1 nM
